# Measured affinities in a library of Ab-14 heavy chain variants

Antigen: PDVDLGDISGINAS, a 14-residue peptide of the SARS-CoV-2 spike HR2 region.

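The starting antibody came from a phage panning campaign against this peptide. Designed CDR sequences, proposed from the first random library and measured here. Several design methods are mixed in this list. The scFvs were displayed on barcoded MATa yeast, the peptide on MATalpha yeast. The frequency of each diploid, read from paired DNA barcodes, reflects how well the two displayed proteins bind. A regression on co-assayed BCL2-family reference pairs converts the normalised counts of each replicate to an apparent Kd. Mating was done six times.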

Each scFv is VH, a 15-residue (Gly4Ser)3 linker, VL, as in the parent Ab-14, and differs from it in the CDRs of the heavy chain only.
VH: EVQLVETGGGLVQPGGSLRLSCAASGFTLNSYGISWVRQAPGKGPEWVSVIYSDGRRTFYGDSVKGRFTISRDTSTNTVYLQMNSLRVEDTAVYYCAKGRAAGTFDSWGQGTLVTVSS
VL: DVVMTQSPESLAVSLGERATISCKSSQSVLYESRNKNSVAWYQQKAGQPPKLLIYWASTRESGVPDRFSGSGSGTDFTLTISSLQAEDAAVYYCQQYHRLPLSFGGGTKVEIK

The parent's heavy chain CDRs are GFTLNSYGIS, VIYSDGRRTFYGDSVK, GRAAGTFDS; each variant's own CDRs replace them letter for letter. This list holds designs with at most six substitutions. Scale: log10 of Kd in nM, estimated from mating counts; low values are strong binders. Replicates are averaged; those with no signal do not enter the mean. Where no diploid with the target was found in any replicate, the entry reads "nd": below detection, most likely a poor binder, though not proof of it. The authors' rule: three or more of the six replicates give a measured affinity, fewer mean a poor binder. Some sequences occur more than once in the pool; their replicates are pooled. Values of this round are not directly comparable with the first-round values of the same sequences. Empty control strains, which show no peptide, gave a signal in 1% of pairings with all heavy chain designs; the median was 2.08 and 95% of these signals were weaker than 0.84. No background was subtracted. Of ten entries with the parent sequence, four were seen in most replicates (averages 0.34 to 2.37), three in one and three in none, so single entries are noisy.

- GFTLNEYGIS, VIYSDGRRTFYSDSVK, GHAAGTFDK: -1.11 (2 of 6 replicates)
- GFSLNSYGIS, VIYSDGKRTFYVDSVK, GRQAGTFDS: 1.17 (6 of 6 replicates)
- GFTLNSYGIS, VIYSDGRRTFYADSVK, GRVAGTFDS: 0.57 (12 of 12 replicates)
- GFELNSYGIS, VIYADGRRTFYGDSVK, GKAAGTFDQ: 0.25 (6 of 6 replicates)
- GFDLNSYGIS, VIYSDGQRTFYGDSVK, GQAAGTFDS: -0.04 (6 of 6 replicates)
- GFTLNKYGIS, VIYSDGRRTFYGDSVK, GQAALTFDS: nd (0 of 6 replicates)
- GFELNSYGIS, VIYSDGKRTFYGDSVK, GQAAGTFDD: 1.71 (5 of 6 replicates)
- GFELNSYGIS, VIYSDGRRTFYGDSVK, GKTAGTFDQ: 0.90 (6 of 6 replicates)
- GPDLNSYPIS, VIYSDGRRTFYGDSVK, GRTAGWFNS: nd (0 of 6 replicates)
- GFTLNEYGIS, VIYSDGRRTFYGDSVK, GQTAGTFDS: 0.14 (6 of 6 replicates)
- GFDLNSYGIS, VIYSDGRRTFYDDSVK, GQVAGKFDS: 2.73 (1 of 6 replicates)
- GFCLNSYGIS, VIYSDGRRTFYGDSVK, GRAAGTFDT: nd (0 of 6 replicates)
- GFTLNEYGIS, VIYSDGRRTFYQDDVK, GRFAGTFDS: 0.73 (6 of 6 replicates)
- GFTLNSYGIS, VIYSDGRRTFYSDSVK, GQEAGSFDS: 1.20 (5 of 6 replicates)
- GFDLNSYGIS, VIYSDGRRTFYSDSVK, GKHAGTFDS: nd (0 of 6 replicates)
- GFKLNSYGIS, VIYSDGRRTFYDDSVK, GRTAGTFDS: 1.23 (2 of 6 replicates)
- GFELNSYGIS, VIYSDGRRTFYGDSVK, GMNAGTFDS: 0.67 (6 of 6 replicates)
- GFTLNEYGIS, VIYSDGRRTFYGDSVK, GRASVTFDI: nd (0 of 6 replicates)
- GFTLNQYGIS, VIYADGRRTFYGDSVK, GRAAHTFDS: nd (0 of 6 replicates)
- GFELNSYGIS, VIYSDGRRTFYGDSVK, GTQAGTFDS: 0.27 (6 of 6 replicates)
- GFTLNDYGIS, VIYSDGRRTFYHDSVK, GRTAGTFDS: -0.07 (6 of 6 replicates)
- GFTLNSYGHS, VIYADGRRTFYGDSVK, GRAKGTFDS: nd (0 of 6 replicates)
- GFTLNEYGIS, VIYSDGRRTFYGDSVK, GRFAGTFDS: 0.36 (12 of 12 replicates)
- GFPLNEYGIS, VIYADGRRTFYGDSVK, GTAAGTFDS: -0.77 (6 of 6 replicates)
- GFELNSYGIS, VIYSDGQRTFYGDSVK, GKTAGTFDS: 0.62 (6 of 6 replicates)
- GFTLNNYGIS, VIYSDGRRTQYSDSVK, GRAAGTFDS: 1.95 (3 of 6 replicates)
- GFELNNYGIS, VIYSDGRRTFYGDSVK, GRHAGTFDT: 0.97 (6 of 6 replicates)
- GFSLNEYGIS, VIYSDGRRTFYIDSVK, GNAAGTFDS: -0.41 (6 of 6 replicates)
- GFSLNSYGIS, VIYSDGRRTFYADDVK, GRNAGTFDS: -0.07 (6 of 6 replicates)
- GFTLNSYGIS, VIYSDGRRTFYGDSVK, GRAAGTSDQ: nd (0 of 6 replicates)
- GFTLNDYGIS, VIYSDGRRVYYIDSVK, GRAAGTFDS: 1.57 (6 of 6 replicates)
- GFTLNMYGIS, VIYSDGRRTFYGDSVK, GAAAGTFKS: nd (0 of 6 replicates)
- GFDLNSYGIS, VIYSDGRRTFYADQVK, GQAAGTFDS: 1.17 (6 of 6 replicates)
- GFTLNDYGIS, LIYSDGRKTFYGDKVK, GRAAGTFDS: nd (0 of 6 replicates)
- GFSLNNYGIS, VIYSDGRRTFYGDSVK, GEAAGTFDS: 0.23 (6 of 6 replicates)
- KFTLNDYGIS, VIYSDGRRTFYTDSVK, GRCAGTFDS: nd (0 of 6 replicates)
- GFTLNEYGIS, VIYSDGRRTFYSDSVK, GRAAGTFDI: -1.28 (6 of 6 replicates)
- GFTLNDYGIS, VIYSDGRRTFYGDSVK, GRAAGTFTD: nd (0 of 6 replicates)
- GFTLNDYGIS, VIYSDGRRTFYHDSVK, GRAAGTFRS: 1.68 (1 of 6 replicates)
- GFTLDSAGIS, VIYSDGRHTFYGDSVK, GRAIGTALS: nd (0 of 6 replicates)
- GFVLNEYGIS, VIYSDGRRTFYGDSVK, GQAAGTFDL: 1.04 (6 of 6 replicates)
- GFSLNEYGIS, VIYSDGRRTFYSDSVK, GQAAGTFDS: -0.61 (6 of 6 replicates)
- GFTLEEYGIS, VIYSDGRRTFYGDSVK, GRAAGTFDQ: 0.53 (6 of 6 replicates)
- GFTLNSYGIS, VIYSDGRRTAYGDSVK, GRVAGTFDS: 0.89 (6 of 6 replicates)
- GFDLNSYGIS, VIYSDGRRTFYSDSVK, GRLAGTFDS: -0.58 (6 of 6 replicates)
- GFTLNSYGIS, VIYSDGRRTFYGDSVK, GRAKGTTDA: 1.15 (1 of 6 replicates)
- GFTLDEYGIS, VIYADGRRTFYGDSVK, GRTAGTFDS: 0.65 (6 of 6 replicates)
- GFSLNEYGIS, VIYSDGRRTFYGDSVK, GQAAGTFDC: 1.40 (2 of 6 replicates)

The 8 strongest on average among those seen in every replicate, once more:

CDR-H1	CDR-H2	CDR-H3	mean log10 Kd (nM)	seen in
GFTLNEYGIS	VIYSDGRRTFYSDSVK	GRAAGTFDI	-1.28	6 of 6
GFPLNEYGIS	VIYADGRRTFYGDSVK	GTAAGTFDS	-0.77	6 of 6
GFSLNEYGIS	VIYSDGRRTFYSDSVK	GQAAGTFDS	-0.61	6 of 6
GFDLNSYGIS	VIYSDGRRTFYSDSVK	GRLAGTFDS	-0.58	6 of 6
GFSLNEYGIS	VIYSDGRRTFYIDSVK	GNAAGTFDS	-0.41	6 of 6
GFSLNSYGIS	VIYSDGRRTFYADDVK	GRNAGTFDS	-0.07	6 of 6
GFTLNDYGIS	VIYSDGRRTFYHDSVK	GRTAGTFDS	-0.07	6 of 6
GFDLNSYGIS	VIYSDGQRTFYGDSVK	GQAAGTFDS	-0.04	6 of 6

The measurements come from Li et al. 2023 (doi:10.1038/s41467-023-39022-2) through the FLAb antibody collection.